These results are taken from publication PMC6256756, “Competitive Fitness of Essential Gene Knockdowns Reveals a Broad-Spectrum Antibacterial Inhibitor of the Cell Division Protein FtsZ” (Antimicrobial Agents and Chemotherapy, 2018).

The target of the assay is T1, FtsZ (BcFtsZ) (Burkholderia cenocepacia, UniProt B4E5Y7).
T1 sequence (B4E5Y7 1-398): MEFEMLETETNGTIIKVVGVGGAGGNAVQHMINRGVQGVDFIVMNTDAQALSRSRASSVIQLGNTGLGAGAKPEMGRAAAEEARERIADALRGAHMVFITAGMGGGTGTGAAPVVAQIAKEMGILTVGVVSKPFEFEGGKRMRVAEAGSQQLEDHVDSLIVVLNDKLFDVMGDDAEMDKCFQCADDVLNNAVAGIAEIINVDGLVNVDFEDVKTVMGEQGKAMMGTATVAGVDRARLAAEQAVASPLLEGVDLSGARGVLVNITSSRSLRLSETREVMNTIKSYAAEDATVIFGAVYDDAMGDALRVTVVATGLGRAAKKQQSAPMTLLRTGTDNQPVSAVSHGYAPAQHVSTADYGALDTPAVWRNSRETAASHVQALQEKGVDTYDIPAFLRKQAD
Nature of the assay: biochemical.

One may read the IC50 as the midpoint of a concentration-inhibition curve. For the compound `COC(=O)CSc1ccc2nsnc2c1[N+](=O)[O-]` [C109, methyl [(4-nitro-2,1,3-benzothiadiazol-5-yl)thio]acetate], the IC50 is 8.2 ± 1.3 µM.
